Target: Histamine H1 receptor (Homo sapiens, UniProt P35367)

Protein sequences, listed by entry. Tags and fused reporters are not part of them.
UniProt P35367, whole entry: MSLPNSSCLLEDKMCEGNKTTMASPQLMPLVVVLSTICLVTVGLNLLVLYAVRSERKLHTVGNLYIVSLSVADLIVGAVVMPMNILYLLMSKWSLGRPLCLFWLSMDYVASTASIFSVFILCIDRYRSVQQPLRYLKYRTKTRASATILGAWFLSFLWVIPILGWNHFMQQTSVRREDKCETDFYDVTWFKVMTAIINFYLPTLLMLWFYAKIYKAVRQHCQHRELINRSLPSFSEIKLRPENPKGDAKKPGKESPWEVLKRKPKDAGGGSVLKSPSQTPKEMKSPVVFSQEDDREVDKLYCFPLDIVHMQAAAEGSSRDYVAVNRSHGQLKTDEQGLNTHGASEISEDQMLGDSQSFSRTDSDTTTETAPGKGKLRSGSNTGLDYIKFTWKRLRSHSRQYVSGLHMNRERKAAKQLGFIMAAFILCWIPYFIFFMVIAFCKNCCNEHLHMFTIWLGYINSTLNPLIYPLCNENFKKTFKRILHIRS

Q: `CN(C)CCOC1=Cc2ccccc2Sc2ccc(Cl)cc21` [ZOTEPINE] was tested. Which Ki did it give?
A: 3.4 nM

From ChEMBL document CHEMBL1149193, “Selective optimization of side activities: another way for drug discovery” (J Med Chem, 2004)
